Drawing on US9302989B2 (priority 2010, dated 2016), this text covers IC50 for 38 compounds.

Chains of the proteins cited; added tags and fusions are not shown. Lines headed by an entry give the natural chain unless they say otherwise; changes in a name come on top.
UniProt P43490: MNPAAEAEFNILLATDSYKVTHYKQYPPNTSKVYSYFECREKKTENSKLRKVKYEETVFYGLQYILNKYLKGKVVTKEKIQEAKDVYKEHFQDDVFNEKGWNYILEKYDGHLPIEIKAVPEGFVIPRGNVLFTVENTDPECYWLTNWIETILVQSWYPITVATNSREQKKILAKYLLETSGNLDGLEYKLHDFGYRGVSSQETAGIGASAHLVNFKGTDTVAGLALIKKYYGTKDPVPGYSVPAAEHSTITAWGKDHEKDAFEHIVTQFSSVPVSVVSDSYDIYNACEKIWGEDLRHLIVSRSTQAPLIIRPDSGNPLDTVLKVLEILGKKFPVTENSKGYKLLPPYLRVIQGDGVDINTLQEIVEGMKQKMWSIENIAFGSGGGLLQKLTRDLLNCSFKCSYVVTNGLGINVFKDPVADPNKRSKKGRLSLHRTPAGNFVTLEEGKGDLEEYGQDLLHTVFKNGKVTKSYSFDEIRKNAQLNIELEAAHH

This test has as its target NAMPT (Homo sapiens (Human), UniProt P43490). Conditions: read-out: TR-FRET Binding IC50 (μM) probe 1. On the technique in general: Time-resolved FRET reads energy transfer from a long-lived donor to a nearby acceptor.
A word on the IC50: it is the concentration that gives 50% inhibition. With `CCCNC(=O)c1ccc(NC(=O)N2Cc3ccc(C(=O)OC)cc3C2)cc1` [Example 272, methyl 2-{[4-(propylcarbamoyl)phenyl]carbamoyl}isoindoline-5-carboxylate], the IC50 worked out at 0.0816 µM.
In the case of `CN(CC1OCCO1)C(=O)c1ccc(NC(=O)N2Cc3ccccc3C2)cc1` [Example 233, N-{4-[(1,3-dioxolan-2-ylmethyl)(methyl)carbamoyl]phenyl}-1,3-dihydro-2H-isoindole-2-carboxamide], the IC50 came out at 0.43 µM.
For `CC(C)CCNC(=O)c1ccc(NC(=O)N2Cc3ccc(F)cc3C2)cc1` [Example 20, 5-fluoro-N-{4-[(3-methylbutyl)carbamoyl]phenyl}-1,3-dihydro-2H-isoindole-2-carboxamide], the IC50 stood at 0.011 µM.
For `O=C(NCCCCC1CCN(C(=O)c2ccccc2)CC1)N1Cc2ccccc2C1` [Example 349, N-[4-(1-benzoylpiperidin-4-yl)butyl]-1,3-dihydro-2H-isoindole-2-carboxamide], the IC50 came out at 0.0022 µM.
For `O=C(NCC1CCCCO1)c1ccc(NC(=O)N2Cc3ccccc3C2)cc1` (centres unmarked) [Example 419, N-{4-[(tetrahydro-2H-pyran-2-ylmethyl)carbamoyl]phenyl}-1,3-dihydro-2H-isoindole-2-carboxamide], the IC50 was found to be 0.01 µM.
As for `O=C(NCc1ccccc1F)c1ccc(NC(=O)N2Cc3ccccc3C2)cc1` [Example 18, N-{4-[(2-fluorobenzyl)carbamoyl]phenyl}-1,3-dihydro-2H-isoindole-2-carboxamide], the IC50 was found to be 0.011 µM.
For `CC(C)(C)OC(=O)N1CC=C(c2ccc(NC(=O)N3Cc4ccccc4C3)cc2)CC1` [Example 317, tert-Butyl 4-{4-[(1,3-dihydro-2H-isoindol-2-ylcarbonyl)amino]phenyl}-3,6-dihydropyridine-1(2H)-carboxylate], the IC50 worked out at 0.0421 µM.
Turning to `CN(CC1CCCO1)C(=O)c1ccc(NC(=O)N2Cc3ccccc3C2)cc1` (centres unmarked) [Example 229, N-{4-[methyl(tetrahydrofuran-2-ylmethyl)carbamoyl]phenyl}-1,3-dihydro-2H-isoindole-2-carboxamide], the IC50 was found to be 0.361 µM.
As for `CCCNC(=O)c1ccc(NC(=O)N2Cc3ccc(NC(=O)C(C)(C)O)cc3C2)cc1` [Example 277, 5-[(2-hydroxy-2-methylpropanoyl)amino]-N-[4-(propylcarbamoyl)phenyl]-1,3-dihydro-2H-isoindole-2-carboxamide], the IC50 turned out to be 1.02 µM.
For `O=C(Nc1nc(-c2ccccc2)cs1)c1ccc(NC(=O)N2Cc3ccccc3C2)cc1` [Example 271, N-{4-[(4-phenyl-1,3-thiazol-2-yl)carbamoyl]phenyl}-1,3-dihydro-2H-isoindole-2-carboxamide], the IC50 is 11.1 µM.
Consider `CC1CCC(C)N1C(=O)c1ccc(NC(=O)N2Cc3ccccc3C2)cc1` (centres unmarked) [Example 259, N-{4-[(2,5-dimethylpyrrolidin-1-yl)carbonyl]phenyl}-1,3-dihydro-2H-isoindole-2-carboxamide], for which the IC50 was found to be 1.54 µM.
Consider `CN(C)c1ccc(NC(=O)c2ccc(NC(=O)N3Cc4ccccc4C3)cc2)cc1` [Example 184, N-(4-{[4-(dimethylamino)phenyl]carbamoyl}phenyl)-1,3-dihydro-2H-isoindole-2-carboxamide], for which the IC50 was determined as 0.141 µM.
As to `O=C(Nc1ccc(C(=O)N2CCC(O)CC2)cc1)N1Cc2ccccc2C1` [Example 221, N-{4-[(4-hydroxypiperidin-1-yl)carbonyl]phenyl}-1,3-dihydro-2H-isoindole-2-carboxamide], the IC50 stood at 0.295 µM.
Then `O=C(Nc1ccc2c(c1)OCO2)c1ccc(NC(=O)N2Cc3ccccc3C2)cc1` [Example 153, N-[4-(1,3-benzodioxol-5-ylcarbamoyl)phenyl]-1,3-dihydro-2H-isoindole-2-carboxamide], with 0.0799 µM; and `O=C(Nc1ccc(N2CCN(C(=O)c3ccccn3)CC2)cc1)N1Cc2ccccc2C1` [Example 529, N-{4-[4-(pyridin-2-ylcarbonyl)piperazin-1-yl]phenyl}-1,3-dihydro-2H-isoindole-2-carboxamide], with 0.103 µM; and `CC(C)CCNC(=O)c1cnc(NC(=O)N2Cc3ccccc3C2)s1` [Example 372, N-{5-[(3-methylbutyl)carbamoyl]-1,3-thiazol-2-yl}-1,3-dihydro-2H-isoindole-2-carboxamide], with 0.0535 µM.
For the compound `O=C(Nc1ccc2c(c1)CN(C(=O)c1ccccc1)C2)N1Cc2ccccc2C1` [Example 346, N-(2-benzoyl-2,3-dihydro-1H-isoindol-5-yl)-1,3-dihydro-2H-isoindole-2-carboxamide], the IC50 came out at 0.0498 µM.
In the case of `O=C(Nc1ccc(/C=C/CCCc2ccccc2)cc1)N1Cc2ccccc2C1` [Example 321, N-{4-[(1E)-5-phenylpent-1-en-1-yl]phenyl}-1,3-dihydro-2H-isoindole-2-carboxamide], the IC50 is 0.203 µM.
For the compound `O=C(NCc1ccc(C(F)(F)F)cc1)c1ccc(NC(=O)N2Cc3ccccc3C2)cc1` [Example 98, N-(4-{[4-(trifluoromethyl)benzyl]carbamoyl}phenyl)-1,3-dihydro-2H-isoindole-2-carboxamide], the IC50 was found to be 0.0381 µM.
Consider `O=C1CC[C@@H](C(=O)N2CCN(c3ccc(NC(=O)N4Cc5ccccc5C4)cc3)CC2)N1` [Example 498, N-{4-[4-(5-oxo-L-prolyl)piperazin-1-yl]phenyl}-1,3-dihydro-2H-isoindole-2-carboxamide], for which the IC50 turned out to be 0.307 µM.
As to `CC(C)CCNC(=O)c1ccc(NC(=O)N2Cc3ccccc3C2)nc1` [Example 370, N-{5-[(3-methylbutyl)carbamoyl]pyridin-2-yl}-1,3-dihydro-2H-isoindole-2-carboxamide], the IC50 came to 0.0075 µM.
`CC(C)(C)NC(=O)c1ccc(NC(=O)N2Cc3ccccc3C2)cc1` [Example 215, N-[4-(tert-butylcarbamoyl)phenyl]-1,3-dihydro-2H-isoindole-2-carboxamide]: the IC50 came to 0.267 µM.
Take `COc1cc(CNC(=O)c2ccc(NC(=O)N3Cc4ccccc4C3)cc2)cc(OC)c1OC` [Example 40, N-{4-[(3,4,5-trimethoxybenzyl)carbamoyl]phenyl}-1,3-dihydro-2H-isoindole-2-carboxamide]: the 50% inhibitory concentration (IC50) was 0.0171 µM.
`O=C(CCCCCNC(=O)N1Cc2ccccc2C1)NCCCc1ccccc1` [Example 361, N-{6-oxo-6-[(3-phenylpropyl)amino]hexyl}-1,3-dihydro-2H-isoindole-2-carboxamide]: the IC50 was found to be 0.436 µM.
Consider `O=C(NCCCN1CCCC1=O)c1ccc(NC(=O)N2Cc3ccccc3C2)cc1` [Example 130, N-(4-{[3-(2-oxopyrrolidin-1-yl)propyl]carbamoyl}phenyl)-1,3-dihydro-2H-isoindole-2-carboxamide], for which the IC50 came to 0.0567 µM.
Then `O=C(Nc1ccc(F)cn1)c1ccc(NC(=O)N2Cc3ccccc3C2)cc1` [Example 211, N-{4-[(5-fluoropyridin-2-yl)carbamoyl]phenyl}-1,3-dihydro-2H-isoindole-2-carboxamide], with 0.241 µM; and `O=C(NCCc1cccc(F)c1)c1ccc(NC(=O)N2Cc3ccccc3C2)cc1` [Example 135, N-(4-{[2-(3-fluorophenyl)ethyl]carbamoyl}phenyl)-1,3-dihydro-2H-isoindole-2-carboxamide], with 0.0615 µM.
In the case of `CCCNC(=O)c1ccc(NC(=O)N2Cc3ccc(-c4cccnc4)cc3C2)cc1` [Example 440, N-{4-[(propylamino)carbonyl]phenyl}-5-pyridin-3-yl-1,3-dihydro-2H-isoindole-2-carboxamide], the IC50 was found to be 0.0355 µM.
For the compound `O=C(Nc1ccc(C(=O)N2CCN(c3ccc(Cl)cn3)CC2)cc1)N1Cc2ccccc2C1` [Example 96, N-(4-{[4-(5-chloropyridin-2-yl)piperazin-1-yl]carbonyl}phenyl)-1,3-dihydro-2H-isoindole-2-carboxamide], the half-maximal inhibitory concentration (IC50) worked out at 0.0365 µM.
In the case of `O=C(N[C@@H](CO)c1ccccc1)c1ccc(NC(=O)N2Cc3ccccc3C2)cc1` [Example 253, N-(4-{[(1R)-2-hydroxy-1-phenylethyl]carbamoyl}phenyl)-1,3-dihydro-2H-isoindole-2-carboxamide], the IC50 worked out at 0.852 µM.
Then `COc1ccc2c(c1)CN(C(=O)Nc1ccc(C(=O)N3CCN(c4ccccn4)CC3)cc1)C2` [Example 69, 5-methoxy-N-(4-{[4-(pyridin-2-yl)piperazin-1-yl]carbonyl}phenyl)-1,3-dihydro-2H-isoindole-2-carboxamide], with 0.0248 µM; and `O=C(Nc1ccc(C(=O)N2CCc3ccccc3C2)cc1)N1Cc2ccccc2C1` [Example 185, N-[4-(3,4-dihydroisoquinolin-2(1H)-ylcarbonyl)phenyl]-1,3-dihydro-2H-isoindole-2-carboxamide], with 0.142 µM.
Then `CC(C)OCCNC(=O)c1ccc(NC(=O)N2Cc3ccccc3C2)cc1` [Example 124, N-{4-[(2-isopropoxyethyl)carbamoyl]phenyl}-1,3-dihydro-2H-isoindole-2-carboxamide], with 0.0517 µM.
Then `CCCNC(=O)c1ccc(NC(=O)N2Cc3ccc(C(=O)O)cc3C2)cc1` [Example 273, 2-{[4-(propylcarbamoyl)phenyl]carbamoyl}isoindoline-5-carboxylic acid], with 1 µM; and `COc1ccc(NC(=O)c2ccc(NC(=O)N3Cc4ccccc4C3)cc2)cc1OC` [Example 146, N-{4-[(3,4-dimethoxyphenyl)carbamoyl]phenyl}-1,3-dihydro-2H-isoindole-2-carboxamide], with 0.0694 µM; and `O=C(NCCc1cccc(C(F)(F)F)c1)c1ccc(NC(=O)N2Cc3ccccc3C2)cc1` [Example 169, N-[4-({2-[3-(trifluoromethyl)phenyl]ethyl}carbamoyl)phenyl]-1,3-dihydro-2H-isoindole-2-carboxamide], with 0.108 µM.
As for `Cc1cccc(O)c1NC(=O)c1ccc(NC(=O)N2Cc3ccccc3C2)cc1` [Example 203, N-{4-[(2-hydroxy-6-methylphenyl)carbamoyl]phenyl}-1,3-dihydro-2H-isoindole-2-carboxamide], the IC50 worked out at 0.198 µM.
With `COc1ccc(NC(=O)c2ccc(NC(=O)N3Cc4ccccc4C3)cc2)c(OC)c1` [Example 131, N-{4-[(2,4-dimethoxyphenyl)carbamoyl]phenyl}-1,3-dihydro-2H-isoindole-2-carboxamide], the IC50 turned out to be 0.0573 µM.
